# Test results reported in PubChem BioAssay AID2459 (The Scripps Research Institute Molecular Screening Center, 2010).
# Chains of the proteins cited; added tags and fusions are not shown. Lines headed by an entry give the natural chain unless they say otherwise; changes in a name come on top.
# UniProt Q17339: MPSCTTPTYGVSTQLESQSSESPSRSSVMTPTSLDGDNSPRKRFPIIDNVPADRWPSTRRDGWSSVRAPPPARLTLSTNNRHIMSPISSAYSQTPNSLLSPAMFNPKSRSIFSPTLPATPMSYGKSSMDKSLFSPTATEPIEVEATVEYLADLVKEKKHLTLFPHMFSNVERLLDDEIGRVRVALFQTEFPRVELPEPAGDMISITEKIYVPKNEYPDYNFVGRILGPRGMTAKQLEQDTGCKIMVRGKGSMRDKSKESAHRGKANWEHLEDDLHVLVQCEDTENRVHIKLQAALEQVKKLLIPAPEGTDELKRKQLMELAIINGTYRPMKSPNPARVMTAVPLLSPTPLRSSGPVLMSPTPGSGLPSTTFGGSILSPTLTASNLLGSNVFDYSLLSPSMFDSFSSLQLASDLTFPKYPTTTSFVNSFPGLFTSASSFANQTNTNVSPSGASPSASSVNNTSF
# The entries are a selection whose mix differs from that of the whole data set. Active and inactive are the calls of the source.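 The calls were made as follows: active = average inhibition across triplicates above the hit cutoff set in the primary screen (cut at about 32% in these data); inactive = the rest.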
# Target: Female germline-specific tumor suppressor gld-1 (Caenorhabditis elegans) (UniProt Q17339)
# Experiment: C. elegans GLD-1 RNA interaction blockers – biochemical, fluorescence polarization, triplicate, confirmation (AID 2459);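 also: 0% = GLD-1 with RNA probe and DMSO and 100% = wells lacking GLD-1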
# Conditions: GLD-1/FL-TGE RNA fluorescence polarization, at 5.96 µM, hits give high values
smiles,measurement,value
CS(=O)(=O)c1cc([N+](=O)[O-])c2no[n+]([O-])c2c1,inhibition,inactive: -17.3%
